According to PubChem BioAssay (NCATS):
Several values for one entry are separate records, joined by “and”; a condition that tells them apart may be missing. Identical values can stand only once. This is a selection; strong and weak results do not stand in their true shares. Results filed as inconclusive are left out. Activity calls are given as the source filed them. Unless noted, calls come from the whole dose curve; as a rule, active = well fitted curve in the direction sought with a large enough effect; inconclusive = small, poorly fitted or top-dose-only effect, or another doubt; inactive = no such curve, though single readings can be large; an effect the other way counts as inactive or inconclusive.

The chains behind the UniProt entries cited, without tags or fusion partners.
UniProt P16066, whole entry: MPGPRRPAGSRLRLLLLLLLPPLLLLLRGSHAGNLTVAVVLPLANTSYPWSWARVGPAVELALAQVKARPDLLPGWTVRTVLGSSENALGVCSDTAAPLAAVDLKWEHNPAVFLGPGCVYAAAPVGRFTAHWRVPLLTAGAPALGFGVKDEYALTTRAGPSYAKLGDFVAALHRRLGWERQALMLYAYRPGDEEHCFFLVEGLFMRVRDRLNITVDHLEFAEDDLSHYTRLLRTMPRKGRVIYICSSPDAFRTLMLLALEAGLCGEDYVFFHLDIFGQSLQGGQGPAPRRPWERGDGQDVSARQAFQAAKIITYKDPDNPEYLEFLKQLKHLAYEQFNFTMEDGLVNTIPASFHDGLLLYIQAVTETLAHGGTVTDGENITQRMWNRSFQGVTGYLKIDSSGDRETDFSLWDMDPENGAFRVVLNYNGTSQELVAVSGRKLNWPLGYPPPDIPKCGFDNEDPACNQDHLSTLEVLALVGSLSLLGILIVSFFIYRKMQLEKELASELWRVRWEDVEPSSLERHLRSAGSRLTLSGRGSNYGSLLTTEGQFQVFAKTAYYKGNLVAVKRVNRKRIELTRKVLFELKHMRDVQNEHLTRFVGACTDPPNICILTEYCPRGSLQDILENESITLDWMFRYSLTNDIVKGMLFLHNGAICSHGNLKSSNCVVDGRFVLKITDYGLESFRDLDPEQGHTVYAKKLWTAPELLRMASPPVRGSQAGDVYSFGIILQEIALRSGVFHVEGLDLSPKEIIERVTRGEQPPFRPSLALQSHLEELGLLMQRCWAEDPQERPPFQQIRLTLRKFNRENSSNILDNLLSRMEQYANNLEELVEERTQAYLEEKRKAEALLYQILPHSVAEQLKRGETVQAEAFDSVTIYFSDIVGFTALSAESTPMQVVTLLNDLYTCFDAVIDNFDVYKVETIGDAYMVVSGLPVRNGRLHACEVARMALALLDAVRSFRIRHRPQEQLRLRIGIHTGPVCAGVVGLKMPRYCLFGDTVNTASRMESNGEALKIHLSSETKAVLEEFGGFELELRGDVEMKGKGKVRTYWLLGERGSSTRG

What was measured:
[1] = qHTS assay for small molecule agonists of the antioxidant response element (ARE) signaling pathway measured by Nrf2-dependant transcriptional activity - cell viability counter screen (AID 720653; active = well fitted curve in the direction sought with a large enough effect in the repeat runs; an effect the other way counts as inactive or inconclusive; note: % is set by controls: 0 for no effect and ±100 for the full control effect); conditions: ARE-bla HepG2 viability, CellTiter-Glo ATP luminescence, 16 h; stronger effect = lower value
In short: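 ARE-bla HepG2 cells (2,000/well) rested 5 hrs at 37C/5% CO2, then exposed to compounds in DMSO for 16 hrs. Viability was read in the same wells as intracellular ATP by luminescence, 30 min at room temperature after reagent addition.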

[2] = qHTS assay for cell viability of HEK293 cells (AID 743288); conditions: ATP luminescence (CellTiter-Glo), 18 h, stronger effect = lower value; note: % is set by controls: 0 for no effect and ±100 for the full control effect; nearly all actives have a fitted effect of over 50% in size
In short: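 Viable-cell counts were inferred from luciferase-based ATP content in HEK293 cells seeded at 2,000/well, pre-incubated ≥5 h, then dosed with DMSO-solubilised compounds for 18 h at 37 C.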

[3] = qHTS assay for cell viability of the p53RE-bla HCT-116 cell line (AID 743292); conditions: p53RE-bla HCT-116 viability, ATP luminescence, 16 h; at 95 µM (top of the series); note: % is set by controls: 0 for no effect and ±100 for the full control effect; nearly all actives have a fitted effect of over 55% in size
In short: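 HCT-116 p53RE-bla cells seeded 4,000/well; 5 h at 37 C; compound (DMSO) added; 16 h at 37 C; CellTiter-Glo added, 30 min RT; luminescence read.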

[4] = qHTS Assay for Identifying Gametocytocidal Compounds (AID 743244);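 note: % is set by controls: 0 for no effect and ±100 for the full control effect; actives lower the fluorescent signal which means gametocytes are killed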; conditions: P. falciparum 3D7 stage III-V gametocytes, alamarBlue, 72 h; stronger effect = lower value
[5] = qHTS assay to identify small molecule inhibitors of chordoma cells - UCH-2 (AID 1259356); conditions: UCH-2 chordoma viability, CellTiter-Glo ATP luminescence, 48 h; at 46.1 µM (top of the series) unless noted; note: % is set by controls: 0 for no effect and ±100 for the full control effect
[6] = High-throughput drug toxicity screening in the BPDCN cell line Gen2.2 (AID 1224824; call rule not given here;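 note: cells exposed to compounds for 48 h before reading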); conditions: Gen2.2 BPDCN cells; at 23.2 µM (top of the series)
Excerpt: (§1) Blastic plasmacytoid dendritic cell neoplasm (BPDCN) is a rare, aggressive and largely incurable hematologic malignancy originating from plasmacytoid dendritic cells (pDCs). Although an initial response to chemotherapy is common, BPDCN prognosis is extremely poor and most patients relapse with drug-resistant disease leading to a median overall survival of ~1 year after diagnosis. To explore novel potential therapeutic strategies in BPDCN, we performed a high-throughput drug toxicity screening in BPDCN cell liens, using of a library of 1,912 small molecules, enriched for compounds that are either approved or in early stages of development for cancer therapy.
(§2) A total of 500 exponentially growing Gen2.2 cells were seeded per well in 5 uL of media (RPMI + Glutamine, without phenol red plus10% FBS and 1X Pen/Strep) into 1536-well solid white high base tissue culture treated Greiner One Bio Plates (789173-F), using a multidrop combi dispenser and a small sterile cassette. […] The plates were then spun at 1000 rpms to remove bubbles and incubated for 15 minutes at room temperature before reading on a ViewLux using a luminescent filter with a 10 second exposure. The relative luciferase units were used to calculated percent activity using DMSO as 100% and Bortezomib as 0%.

[7] = High-throughput drug toxicity screening in the BPDCN cell line Cal-1 (AID 1224825; call rule not given here); conditions: Cal-1 BPDCN cell viability, qHTS; at 23.2 µM (top of the series)
Excerpt: as §1
as §2, with “Cal-1” for “Gen2.2”

[8] = qHTS Screen of the MIPE 4.0 Collection Against Ewings Sarcoma (TC71) (AID 1259253); conditions: TC71 Ewing sarcoma viability, CellTiter-Glo, 48 h; note: potency is the fitted concentration of half-maximal effect; nearly all actives have a fitted effect of over 40% in size
In short: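 Compound titrations go onto adherent log-phase cells 4 h after seeding, incubate 48 h at 37C, then CellTiter-Glo luminescence reports viability relative to DMSO and cell-free controls.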

[9] = P-glycoprotein substrates identified in KB-3-1 adenocarcinoma cell line, qHTS therapeutic library screen (AID 1346986); conditions: KB-3-1 parental cells viability, CellTiter-Glo, 72 h; at 44.5 µM (top of the series); note: nearly all actives have a fitted effect of over 60% in size
Description: The ATP-binding cassette transporters P-glycoprotein (P-gp) is known to limit brain penetration of many chemotherapy drugs. […] We used the CellTiter-Glo viability assay to test library compounds against the parental KB-3-1 human cervical adenocarcinoma cell line and the colchicine-selected sub-line KB-8-5-11 that over-expresses P-gp. KB-8-5-11 cells were also tested in the presence of a P-gp inhibitor (tariquidar) to assess reversability of transporter-mediated resistance. Of the tested compounds, a total of 90 P-gp substrates were identified including 55 newly identified P-gp substrates. Substrates were confirmed using an orthogonal killing assay against HEK-293 cells transfected with P-gp. As exemplars, we confirmed that AT7159 (cyclin-dependent kinase inhibitor); AT9283, (Janus kinase 2/3 inhibitor); ispinesib (kinesin spindle protein inhibitor); gedatolisib (PKI-587, phosphoinositide 3-kinase/mammalian target of rampamycin inhibitor); GSK-690693 (AKT inhibitor); and KW-2478 (heat shock protein 90 inhibitor) were substrates , and direct ATPase stimulation was assessed. […]
All cell lines were plated into 1536-well plates at 500 cells/well in 5 uL media. […] CellTiter-Glo reagent (Promega) was dispensed into the wells, incubated for 5 min and luminescence was read on a ViewLux instrument (Perkin-Elmer). […]

[10] = target: Atrial natriuretic peptide receptor 1 (Homo sapiens) (UniProt P16066); assay: Natriuretic polypeptide receptor (hNpr1) antagonism - Pilot screen (AID 1347049; calls by dose curve;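 note: HEK293 cells with hNpr1 and GloSensor cGMP luciferase stimulated by 0.1 nM hNppA; agonist-evoked cGMP luminescence read 20 min after hNppA addition; % is set by controls: 0 for no effect and ±100 for the full control effect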); conditions: hNpr1 cells, antagonist mode cGMP read-out; at 57.5 µM (top of the series)
Description: In order to identify small molecular compounds that inhibit the hNpr1 receptor we developed a high-throughput assay to measure inhibition of the guanylate cyclase activity of the receptor. cGMP production was measured using a circular permutated Firefly luciferase (FLuc) enzyme functionally linked to the cGMP binding domain of human phosphodiesterase 5 (GloSensor technology pGS-40F, (Fan, F. et al. 2008). The cGMP-sensor was expressed in human embryonic kidney 293 (HEK-293) cells and FLuc activity was measured after stimulation with hNrp agonist peptide. hNrp agonists activates the receptor's associated guanylyl cyclase (GC) domain producing cGMP which then binds to the GloSensor resulting in FLuc activation, the enzymatic activity of which can be measured as bioluminescence with addition of luciferin substrate.
F. Fan, B. F. Binkowski, B. L. Butler, P. F. Stecha, M. K. Lewis, K. V. Wood, Novel genetically encoded biosensors using firefly luciferase. ACS Chem Biol 3, 346-351 (2008).
This assay was initially piloted by testing with a small diversity library of compounds with known pharmacological activity. […]
7. […] GloSensor baseline pre-read luminescence measured using CCD-based camera (Viewlux). […]
10. […] GloSensor post-hNppA luminescence measured using CCD-based camera (Viewlux). […]
1. […] Cells counted with Invitrogen Countess (30,000,000 - 50,000,000 cells/flask). […]

Q: Which max response [1] does the source give for [NH4+].[O-][Cl+3]([O-])([O-])[O-] here?
A: Its max response is inactive: -3.81%.

Q: What about the max response [2] of the same molecule?
A: Its max response is inactive: -0.505%.

Q: What about the activity change, negative = cytotoxicity [3] of the same molecule?
A: Its activity change, negative = cytotoxicity is inactive: -0.15%.

Q: Which results are given for CN(C)CCS?
A: max response [4]: inactive: -3.52%; activity change, negative = inhibition [5]: inactive: -3.07%

Q: Which results are given for CC(C)OP(=O)(F)OC(C)C?
A: max response [4]: inactive: -7.14%; activity change, negative = inhibition [5]: inactive: -0.995%

Q: With CCOP(=S)(CC)Oc1cc(Cl)c(Cl)cc1Cl (stereo unspecified) as the molecule, how does the max response [1] read?
A: Its max response is inactive: -5.73%.

Q: What about the max response [2] of the same molecule?
A: Its max response is inactive: -13.3%.

Q: What about the activity change, negative = cytotoxicity [3] of the same molecule?
A: Its activity change, negative = cytotoxicity is inactive: -16.7%.

Q: For Cc1ccc([N+](=O)[O-])cc1[N+](=O)[O-], which max response [1] is on record?
A: Its max response is inactive: 0.987% and inactive: 8.02%.

Q: And the max response [2]?
A: Its max response is inactive: -9.46% and inactive: 1.2%.

Q: What about the activity change, negative = cytotoxicity [3] of the same molecule?
A: Its activity change, negative = cytotoxicity is inactive: 4.43% and inactive: -4.41%.

Q: With Cc1ccc([N+](=O)[O-])c([N+](=O)[O-])c1 as the molecule, how does the max response [1] read?
A: The max response was inactive: 7.73% and inactive: -7.18%.

Q: And the max response [2]?
A: Its max response is inactive: -4.09% and inactive: -0.299%.

Q: What about the activity change, negative = cytotoxicity [3] of the same molecule?
A: The activity change, negative = cytotoxicity was inactive: -6.24% and inactive: -5.32%.

Q: For CC(C)N(CCCl)C(C)C, which max response [4] is on record?
A: Its max response is inactive: -2.13%.

Q: Which max response [4] does the source give for OCCSCCO here?
A: Its max response is inactive: 5.93%.

Q: And the activity change, negative = inhibition [5]?
A: Its activity change, negative = inhibition is inactive: -3.42%.

Q: For Cc1c([N+](=O)[O-])cccc1[N+](=O)[O-], which max response [1] is on record?
A: Its max response is inactive: -8.18% and inactive: -7.81%.

Q: And the max response [2]?
A: Its max response is inactive: -3.23% and inactive: -6.3%.

Q: What about the activity change, negative = cytotoxicity [3] of the same molecule?
A: Its activity change, negative = cytotoxicity is inactive: 3.16% and inactive: 4.38%.

Q: For CCOP(=O)(CC)OCC, which max response [1] is on record?
A: The max response was inactive: -4.6%.

Q: And the max response [2]?
A: Its max response is inactive: 8.31%.

Q: And the activity change, negative = cytotoxicity [3]?
A: Its activity change, negative = cytotoxicity is inactive: 7.95%.

Q: With Cc1cccc([N+](=O)[O-])c1[N+](=O)[O-] as the molecule, how does the max response [1] read?
A: The max response was inactive: -3.89% and inactive: -7.47%.

Q: And the max response [2]?
A: The max response was inactive: 1.41% and inactive: -2.66%.

Q: And the activity change, negative = cytotoxicity [3]?
A: The activity change, negative = cytotoxicity was inactive: -3.21% and inactive: 1.75%.

Q: For O=[N+]([O-])OCC(CO[N+](=O)[O-])(CO[N+](=O)[O-])CO[N+](=O)[O-], which max response [4] is on record?
A: Its max response is inactive: 5.49%.

Q: And the activity change, negative = inhibition [5]?
A: The activity change, negative = inhibition was inactive: 0.819%.

Q: Which results are given for C/C1=C2N=C(/C=C3N=C(/C(C)=C4\[N-][C@@](C)([C@@H]5N=C1[C@](C)(CCC(=O)NC[C@@H](C)OP(=O)([O-])O[C@H]1[C@@H](O)[C@@H](n6cnc7cc(C)c(C)cc76)O[C@@H]1CO)[C@H]5CC(N)=O)[C@@](C)(CC(N)=O)[C@@H]4CCC(N)=O)[C@@](C)(CC(N)=O)[C@@H]\3CCC(N)=O)C(C)(C)[C@@H]/2CCC(N)=O.[C-]#N.[Co+3]?
A: max response [4]: inactive: 11.6%; activity change, negative = inhibition [5]: inactive: 3.81% [at 20.6 µM]

Q: What does the source list for O=[N+]([O-])[O-].[NH4+]?
A: max response [1]: inactive: -7.45%; max response [4]: inactive: 16.2%; max response [2]: inactive: 7.15%; activity change, negative = cytotoxicity [3]: inactive: 7.18%; activity change, negative = inhibition [5]: inactive: 21.4%

Q: With O=[N+]([O-])c1cccc([N+](=O)[O-])c1 as the molecule, how does the max response [1] read?
A: Its max response is inactive: 14.1% and inactive: -6.43%.

Q: And the max response [4]?
A: Its max response is inactive: -1.37% and inactive: -7.98%.

Q: And the max response [2]?
A: Its max response is inactive: 8.39% and inactive: -6.81%.

Q: What about the activity change, negative = cytotoxicity [3] of the same molecule?
A: Its activity change, negative = cytotoxicity is inactive: -2.61% and inactive: -5.8%.

Q: What about the activity change, negative = inhibition [5] of the same molecule?
A: The activity change, negative = inhibition was inactive: 8.08%.

Q: With CC1=C2[N-][C@@](C)([C@@H]3N=C(C(C)=C4N=C(C=C5N=C1[C@@](C)(CC(N)=O)[C@H]5CCC(N)=O)C(C)(C)[C@H]4CCC(N)=O)[C@](C)(CCC(=O)NC[C@@H](C)OP(=O)([O-])O[C@H]1[C@@H](O)[C@@H](n4cnc5cc(C)c(C)cc54)O[C@H]1CO)[C@H]3CC(N)=O)[C@@](C)(CC(N)=O)[C@@H]2CCC(N)=O.[C-]#N.[Co+3] as the molecule, how does the cell viability, % of control (lower = more cytotoxic) [6] read?
A: The cell viability, % of control (lower = more cytotoxic) was 102%.

Q: What about the viability (% of control) [7] of the same molecule?
A: Its viability (% of control) is 99.8%.

Q: And the Potency [8]?
A: The Potency was active: 8.12 µM.

Q: Which max response [4] does the source give for CCOP(=O)(CC)Oc1ccc([N+](=O)[O-])cc1 (stereo unspecified) here?
A: The max response was inactive: -20.3%.

Q: What about the outcome [9] of the same molecule?
A: The outcome was “inactive”.

Q: Which max response [1] does the source give for CCC(C)(OO)OOC(C)(CC)OO (stereo unspecified) here?
A: Its max response is inactive: 6.94% and inactive: 0.195%.

Q: And the max response [2]?
A: The max response was inactive: -1.31% and inactive: 1.13%.

Q: And the activity change, negative = cytotoxicity [3]?
A: The activity change, negative = cytotoxicity was inactive: -6.09% and inactive: -3.13%.

Q: Which activity change, negative = inhibition [10] does the source give for N#[O+].[C-]#N.[C-]#N.[C-]#N.[C-]#N.[C-]#N.[Fe+2].[Na+].[Na+] here?
A: The activity change, negative = inhibition was inactive: 20.3%.
